## Binding of CDR-mutated scFvs to a peptide of the spike HR2 region

Antigen: PDVDLGDISGINAS, a 14-residue peptide of the SARS-CoV-2 spike HR2 region.

Parent: Ab-95, a human scFv built as VH, a (GGGGS)3 linker, VL. Only the CDRs of the light chain vary.
VH: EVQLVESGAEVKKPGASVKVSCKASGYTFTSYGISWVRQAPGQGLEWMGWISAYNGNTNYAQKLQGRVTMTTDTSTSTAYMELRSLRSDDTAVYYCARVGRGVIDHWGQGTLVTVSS
VL: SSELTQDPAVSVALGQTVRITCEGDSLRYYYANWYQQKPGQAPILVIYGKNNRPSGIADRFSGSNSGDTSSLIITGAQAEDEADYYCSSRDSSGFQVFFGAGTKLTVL

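The starting antibody came from a phage panning campaign against this peptide. Variants in AAYL52 differ from the parent at up to three CDR positions; double and triple changes were sampled at random. AlphaSeq pools MATa yeast showing the antibodies with MATalpha yeast showing the peptide. Mating (16 h, 30 °C) was followed by selection of diploids and sequencing of their barcodes. The ratio of observed to expected reads was calibrated, replicate by replicate, on BCL2-family standards whose Kd was known from biolayer interferometry. The assay was run in three technical replicates.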

Substitutions are numbered in sequence along the VL above, starting at 1 (not Kabat).
Every variant below is changed at S88 of the VL (sequential numbering).
The Kd shown is the geometric mean over detected replicates; a lower Kd is a better binder.
Where no diploid with the target was found in any replicate, the entry reads "not detected": below detection, most likely a poor binder, though not proof of it.
As a blank, each scFv also met three strains without target: over library AAYL52, 28% of these pairings were detected, typically at 8.2 µM and seldom below 800 nM.

changes	Kd (apparent)	detected
G24E/S88A/D91V	1.6 µM	1/3
N51W/S88V	5.5 µM	1/3
G24R/S88Q/S89P	1.1 µM	3/3
S88W/G94T/Q96K	20 µM	1/3
A32I/S88C/Q96P	8.3 µM	3/3
K50S/S88W/Q96S	1.4 µM	3/3
S88F/S93F	1.0 µM	3/3
N33W/S88M/V97R	18 µM	3/3
G49Q/S88V	140 µM	3/3
Y29L/K50L/S88Y	9.2 µM	2/3
E23W/K50C/S88I	1.5 µM	3/3
S26C/S88I	52 µM	2/3
L27G/S88A/R90A	480 µM	1/3
G24Q/S88R	not detected	0/3
S88R	7.0 µM	2/3
N52K/S55H/S88Y	not detected	0/3
S88A/R90C/F95A	4.7 µM	2/3
Y30V/S88H/S89C	210 nM	3/3
D25A/S88I/D91V	290 nM	3/3
N51S/S88L/F98E	12 µM	2/3
A32C/S88N/V97Y	1.7 µM	3/3
Y31S/S88D/G94Y	63 µM	1/3
S88I	24 µM	2/3
K50T/N51H/S88P	740 nM	3/3
N52L/S88H/R90D	170 nM	3/3
E23T/S88P/F95N	560 nM	3/3
S88T/F95C/F98M	1.1 µM	3/3
G24T/S88I/Q96S	31 µM	1/3
N52H/S88K	9.4 µM	3/3
R28F/N33P/S88Q	not detected	0/3
A32Q/S88F/D91V	24 µM	2/3
S88V	5.9 µM	3/3
N33R/S88E/S89K	4.1 µM	2/3
N51R/S88F/R90F	57 µM	2/3
A32F/S88C/D91W	2.9 µM	2/3
S26L/N51R/S88V	not detected	0/3
E23D/S88P/F98M	not detected	0/3
N33V/S88Q/V97P	2.8 µM	1/3
K50I/S55Q/S88L	5.4 µM	2/3
N51W/S88L/S93E	15 µM	2/3
Y29M/S88V/R90C	5.6 µM	1/3
P54T/S88D/F95K	16 µM	3/3
S88H/D91N/F95I	330 nM	3/3
G24N/S88V	7.1 µM	2/3
G24T/N51Y/S88N	3.6 µM	2/3
Y29W/S88H/S89H	200 nM	2/3
S88M/D91F	8.3 µM	2/3
G49L/K50E/S88A	15 µM	3/3
S88Y	230 nM	3/3
S88K/F95M	25 µM	2/3

Top 5 of the variants detected in all replicates, tightest first:

changes	Kd (apparent)	detected
N52L/S88H/R90D	170 nM	3/3
Y30V/S88H/S89C	210 nM	3/3
S88Y	230 nM	3/3
D25A/S88I/D91V	290 nM	3/3
S88H/D91N/F95I	330 nM	3/3

For reference, the parent read 200 nM as the reference entry and 180 nM as a member of this library.

From the AlphaSeq antibody data of Engelhart et al. 2022 (doi:10.1038/s41597-022-01779-4), copy in the FLAb collection.